How the values were obtained:
[1] = system: NCI-N87 ADCr cells (ADCT-502 acquired resistant); assay: MTS in vitro cytotoxicity, 144 h continuous exposure; format: cell-based, human; conditions: mean
Text: (§1) The growth inhibition curves for the wildtype and ADCT-502 acquired resistant cells are shown in FIG. 3, and for SG3199 resistant cells in FIG. 4.

[2] = system: NCI-N87 PBDr cells (SG3199 acquired resistant); assay: as above; format: cell-based, human; conditions: mean
Text: as §1

Trastuzumab-SG3560: C2-linked PBD-ADC
IC50 ng/mL [1]: 95 (95) ng/mL
IC50 ng/mL [2]: 54 (54) ng/mL

Reference: patent US20220347309A1, “PYRROLOBENZODIAZEPINE RESISTANCE” (ADC THERAPEUTICS SA, priority 2018, published 2022)
